Results published in patent US9737532B2, “Method of treating ischemia/reperfusion injury” (TOKYO UNIVERSITY OF SCIENCE FOUNDATION, priority 2011, dated 2017).

Test system: p53
Assay: p53 protein stabilization by Western blotting in mouse fibroblast cells
Assay type: cell-based
Conditions: 3T3-F442A cells, 8 hours, FIG. 4A

Nutlin3a
p53 protein stabilization: induced p53 protein stabilization
